Screening results from PubChem BioAssay.
A selection: hits, their analogues and other compounds. The true share with any hit is near 1.3%.
Giardia kill: Giardia lamblia killing. activity change, % at 7.66 µM, hits read low. AID 540267. Giardia lamblia trophozoite viability. 340,000 tested, 0.15% active; in the data active = activity change below about -80%; inconclusive = between about -30% and that limit;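 note: parasites exposed to compound for two days anaerobically before the ATP read; % is set by controls: 0 for no effect and ±100 for the full control effect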
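Luminescent ATP signal served as the viability read-out, measured 15-30 min after adding ATP detection reagent to trophozoites that had been incubated with compounds for 48 hrs at 37 deg C anaerobically at 100 cells/well.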
miR-21 reporter: raises the signal of a miR-21 reporter | AID 2288 | 340,000 tested, under 10 active | Potency, µM (series often up to 38.3 µM), without a hit: at the highest dose reporter change, positive = more light | HeLa miR-21 FLuc reporter, luciferase, 48 h; active = well fitted rising curve with a large enough effect; inconclusive = small, poorly fitted or top-dose-only effect; inactive = no such curve, though single readings can be large or run the other way;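 further: % of control where 0% means no effect; miR-21 action dims this reporter so a rising signal means less miR-21 action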
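Luminescence from a firefly luciferase reporter carrying a miR-21 binding site downstream, stably expressed under a CMV promoter in HeLa cells that make miR-21 endogenously, reports miRNA modulation after 48 h compound exposure up to approximately 40uM final.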
PINK1 modulator: modulators of PINK1 expression; Potency, µM (series often up to 76.6 µM), for inactives: at the highest dose activation (PINK1 increase), usual class: activators; 410,000 tested, 0.2% active; PINK1 immunofluorescence, high-content cytometry, 24 h; active = well fitted activation curve with a large enough effect; inconclusive = small, poorly fitted or top-dose-only effect; cell line not stated here; note: potency is the fitted concentration of half-maximal effect; % of control where 0% means no effect; nearly all actives have a fitted effect of over 65% in size
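Decision-based qHTS: stable cells, 24 h exposure to five compound concentrations, CCCP as control. Fixed cells stained for PINK1 plus nuclear, mitochondrial and cell markers, cytometer read.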
ERG-DNA inh: blocks human ERG Ets domain binding to DNA. P11308. Potency, µM (titrated, usually from 76.9 µM), for inactives: at the highest dose FP activity, negative = inhibition, hits mostly inhibitors. 370,000 tested, 0.028% active. fluorescence polarization, His-ERG Ets domain / labelled DNA; active = well fitted inhibition curve with a large enough effect in the polarisation, with a control signal flat; inconclusive = small, poorly fitted or top-dose-only effect, or effect the other way, or a change in a side signal; inactive = no such curve, though single readings can be large or run the other way; the % refers to the polarisation;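 note: polarization taken with two DNA probes labelled with fluorescein and Texas red; potency is the fitted concentration of half-maximal effect; % of control where 0% means no effect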
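His-tagged ERG Ets domain (1 uM in the protein solution; 300mM KCl, 50mM Tris-HCl, 1mM EDTA, 1mM DTT, pH 7.5) received compound, then a probe mix of 5 nM fluorescein-DNA and 100nM Texas-615-DNA. Fluorescence polarization was read for both dyes.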
PTHR1 agonist: activates the human parathyroid hormone receptor PTHR1; 410,000 tested, 0.075% active; Q03431; Potency, µM (highest dose often 115 µM), without a hit: at the highest dose activation, most hits filed as activators; AID 743266; HEK293 GP2 PTHR1 cells, GloSensor cAMP luminescence, 1 h; note: potency is the fitted concentration of half-maximal effect; nearly all actives have a fitted effect of over 55% in size
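HEK-293-derived GP2 cells expressing PTHR1 and a GloSensor cAMP reporter, 3,000/well, plated overnight, given luciferin plus IBMX (each 0.5 mM as added) for 1 h at 37 °C, then compound for 1 h at 37 °C. Luminescence was read after 15 min at room temperature.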
ALOX12 inh: ALOX12 (human) lipoxygenase inhibition. purified 12hLO, xylenol orange hydroperoxide absorbance. AID 1671190. 580,000 tested, 1.1% active. Potency, µM (top dose mostly 108 µM), without a hit: top-dose activity change, negative = inhibition, hits mostly inhibitors. P18054; note: potency is the fitted concentration of half-maximal effect; % is set by controls: 0 for no effect and ±100 for the full control effect
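Purified human 12hLO (150 nM final) in 25 mM Hepes, 0.01% Triton X-100, pH 7.0 was preincubated 15 min at room temperature with compound. Then 40 uM arachidonic acid was added, 30 min. Hydroperoxide was read by Fe-XO absorbance ratio 573/405 nm.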
Starred values were filed as active, the others as inactive; i = inactive; ? = inconclusive; nt = not tested or not shown; [ ] = dose if it differs, or a comment. Unless noted, calls come from the whole dose curve; as a rule, active = well fitted curve in the direction sought with a large enough effect; inconclusive = small, poorly fitted or top-dose-only effect, or another doubt; inactive = no such curve, though single readings can be large; an effect the other way counts as inactive or inconclusive.

#1 COc1cccc(-c2nc(S(=O)(=O)c3ccc4c(c3)OCCO4)c(N3CCOCC3)o2)c1
#2 CN(C)CCNc1oc(-c2ccc(F)cc2)nc1S(=O)(=O)c1ccc2c(c1)OCCO2
#3 O=[N+]([O-])c1cnc(NS(=O)(=O)c2ccccc2[N+](=O)[O-])s1
#4 CCOc1ccc(OCCCC(=O)N2CCN(S(=O)(=O)c3ccc(Cl)cc3)CC2)cc1
#5 O=C(CCCOc1ccccc1)N1CCN(S(=O)(=O)c2ccc(Cl)cc2)CC1
#6 C[C@H]1CCC/C=C/[C@@H]2C[C@H](O)C[C@H]2[C@H](O)[C@H](S(=O)c2ccc(O)cc2)CC(=O)O1 (stereo not given in full)
#7 CC1CCCC=CC2CC(OC(=O)CN(C)C)CC2C(O)C=CC(=O)O1 (stereo not given)
#8 Cc1c(C(=O)c2ccc(F)cc2)c2ccccn2c1CCc1ccccn1

compound no. | 1 | 2 | 3 | 4 | 5 | 6 | 7 | 8
Giardia kill | nt | nt | nt | -4 | 7 | -12 | 4 | 11
miR-21 reporter | nt | nt | nt | nt | nt | nt | nt | -12%
PINK1 modulator | nt | nt | nt | 1% | -5% | -2% | -2% | 6%
ERG-DNA inh | nt | nt | nt | -13% | -5% | nt | nt | 7%
PTHR1 agonist | nt | nt | nt | -33% | i | i | i | -27%
ALOX12 inh | -11% | 32µM* | 40µM* | 45µM* | -30% | 40µM* | -7% | ?

#9 COc1ccc(C=C2OC(=O)C(C(C)=O)=C2O)cc1
#10 CC(=O)C1=C(O)C(=Cc2ccccc2)OC1=O
#11 COc1ccc(/C=C2\Oc3ccccc3C2=O)cc1
#12 Cc1ccc(Nc2nc(N(C)C)nc3nccnc23)c(C)c1
#13 CCOC(=O)/C=c1\s/c(=C(\C#N)C(=O)NC)n(-c2ccccc2)c1=O
#14 Cc1ccccc1-n1c(=O)/c(=C\c2ccco2)s/c1=C(/C#N)C(=O)Nc1ccccc1
#15 CCOC(=O)c1ccc(Nc2nc(N)c(C(=O)c3ccc(C)cc3C)s2)cc1
#16 COC/C=C/C1=CC2=CC(=O)C(C)(OC(=O)C3CCCC3)C(=O)C2=CO1 (stereo not given)

compound no. | 9 | 10 | 11 | 12 | 13 | 14 | 15 | 16
Giardia kill | nt | nt | -30 | nt | -15 | -16 | nt | 14
miR-21 reporter | nt | nt | nt | nt | 3% | -1% | nt | 0%
PINK1 modulator | -2% | 2% | 0% | nt | 0% | ? | nt | 1%
ERG-DNA inh | nt | nt | -22% | nt | 4% | 33% | nt | 30%
PTHR1 agonist | -85% | i | -6% | nt | -60% | -2% | nt | 14%
ALOX12 inh | 45µM* | 14µM* | ? | -23% | -3% | 35µM* | -13% | 22µM*

#17 CN=C(NC)NCc1ccc(C(=O)OC)cc1
#18 CCOCc1nnc(NC(=O)C2CCN(C(=O)C3CC(=O)N(c4ccc(C)cc4)C3)CC2)s1 (stereo not given)
#19 O=C(CSCc1ccc(Cl)cc1)Nc1ccc(O)cc1C(=O)O
#20 CCc1c(O)nc(SC2CC(=O)N(c3ccc(F)c(Cl)c3)C2=O)[nH]c1=O (stereo not given)
#21 Cc1c(O)nc(SC2CC(=O)N(c3cc(Cl)cc(Cl)c3)C2=O)[nH]c1=O (stereo not given)
#22 O=C(O)/C(=C\c1ccc(Cl)c([N+](=O)[O-])c1)c1ccc(S(=O)(=O)N2CCCC2)s1
#23 O=C(O)/C(=C\c1ccc(Cl)c([N+](=O)[O-])c1)c1ccc(S(=O)(=O)N2CCCCC2)s1
#24 CNC(=O)c1ccsc1NC(=O)CN1C(=O)CCC1=O

compound no. | 17 | 18 | 19 | 20 | 21 | 22 | 23 | 24
Giardia kill | nt | 1 | -3 | 6 | 5 | -3 | 5 | 24
miR-21 reporter | nt | 0% | 2% | -2% | nt | nt | -1% | 9%
PINK1 modulator | nt | 0% | 1% | 0% | 1% | -2% | -3% | 0%
ERG-DNA inh | nt | 5% | -2% | 12% | 4% | 2% | -11% | 9%
PTHR1 agonist | nt | i | i | i | -23% | i | i | 11%
ALOX12 inh | 25µM* | -16% | 6.3µM* | ? | 5.6µM* | 18µM* | ? | 10%[57.4 µM]

Some of these compounds in order of the miR-21 reporter value, largest number first:
No.	structure	miR-21 reporter
24	CNC(=O)c1ccsc1NC(=O)CN1C(=O)CCC1=O	9%
19	O=C(CSCc1ccc(Cl)cc1)Nc1ccc(O)cc1C(=O)O	2%
23	O=C(O)/C(=C\c1ccc(Cl)c([N+](=O)[O-])c1)c1ccc(S(=O)(=O)N2CCCCC2)s1	-1%
20	CCc1c(O)nc(SC2CC(=O)N(c3ccc(F)c(Cl)c3)C2=O)[nH]c1=O (stereo not given)	-2%

Later entries.
#25 CSC1=N/C(=C\C=C\c2ccco2)C(=O)S1
#26 CCCCCCN1C=CC(=C/C=C(\C#N)C(=O)OCC)C=C1
#27 CC(C)N1CC[C@@H]2[C@H]1C(=O)NC[C@H](CCC(=O)N1CCN(c3ccccc3)CC1)N2C
#28 COc1ccc2[nH]c(C(=O)N3CCN4CCS(=O)(=O)N(C5CC5)C(=O)C4C3)cc2c1 (stereo not given)
#29 Cc1ccc(C)c(N2CCN(C(=O)c3ccc(N4CCCC4=O)cc3)CC2)c1
#30 COc1ccc([C@H]2CC(=O)C[C@@H](CCn3cc(-c4ccccc4)nn3)O2)cc1
#31 COc1ccc([C@H]2CC(=O)C[C@@H](CCn3cc(-c4cccnc4)nn3)O2)cc1
#32 CC1C[N+](=C2C=C(N3CCOCC3)CC(C)(C)C2)CC(C)O1 (stereo not given)

compound no. | 25 | 26 | 27 | 28 | 29 | 30 | 31 | 32
Giardia kill | nt | -20 | nt | nt | -19 | nt | nt | ?
miR-21 reporter | nt | -2% | nt | nt | 6% | nt | nt | 1%
PINK1 modulator | nt | 13µM* | nt | nt | 2% | 1% | 1% | 0%
ERG-DNA inh | nt | nt | nt | nt | 14% | nt | nt | -7%
PTHR1 agonist | nt | i | nt | nt | i | i | -22% | i
ALOX12 inh | 3.2µM* | -2% | 18%[176 µM] | 22µM* | nt | 10µM* | -10% | 28µM*

Structures listed above printed as active in PINK1 modulator.
| No. | compound | miR-21 reporter | PINK1 modulator | ERG-DNA inh | PTHR1 agonist | ALOX12 inh |
| --- | --- | --- | --- | --- | --- | --- |
| 26 | CCCCCCN1C=CC(=C/C=C(\C#N)C(=O)OCC)C=C1 | -2% | 13µM* | nt | i | -2% |

Going on with the list.
#33 CC1(C)CC(N2CCOCC2)=CC(=[N+]2CCOCC2)C1
#34 Cc1cc(SCC(=O)NC(=O)NCc2ccco2)nc2ccccc12
#35 Cc1cc(SCC(=O)NC(=O)NCc2ccco2)nc2c(C)cccc12
#36 CCN(CC)c1ccc(/C=C/c2cccc[n+]2C)c(OC)c1
#37 COc1ccc(NC(C)=O)cc1NC(=O)Cn1nc2c(cc1=O)CCCCC2
#38 O=C(CSCc1ccccc1Br)NNC(=S)NCc1ccco1
#39 CCc1ccc(S(=O)(=O)NC(=S)Nc2ccccc2)cc1
#40 CCNC(=S)NS(=O)(=O)c1ccc(CC)cc1

compound no. | 33 | 34 | 35 | 36 | 37 | 38 | 39 | 40
Giardia kill | 3 | -2 | 5 | 9 | nt | 0 | 4 | 24
miR-21 reporter | -1% | -8% | -8% | ? | nt | -1% | -2% | -1%
PINK1 modulator | -1% | -2% | 24%[38.3 µM] | 10µM* | nt | -2% | 0% | 0%[38.3 µM]
ERG-DNA inh | 9% | -8% | -4% | 137% | nt | 7% | -4% | 0%
PTHR1 agonist | i | -40% | 25%[57.5 µM] | -33% | nt | -25% | i | i
ALOX12 inh | ? | 0% | 22µM* | ? | 38% | 45µM* | 45µM* | 6.3µM*

#41 Cc1ccc(N(CC(=O)Nc2ccc(OC(F)(F)F)cc2)S(=O)(=O)c2c(C)noc2C)cc1
#42 C/C(=N\NC(=O)c1ccccc1NC(=O)c1ccc(Cl)cc1)c1ccncc1
#43 O=C(NC1CC1)[C@@H]1CN(Cc2cc(F)c(F)cc2F)C[C@H]1CO
#44 O=C(NC1CC1)[C@@H]1CN(Cc2ccc(Cl)cc2F)C[C@H]1CO
#45 O=C(N[C@@H]1CN(Cc2ccc(F)cc2F)C[C@H]1CO)c1ccccc1
#46 CC(C)C(=O)NC(Nc1ccccc1F)C(Cl)(Cl)Cl (stereo not given)
#47 CC(C)C(=O)NC(Nc1cccc2ccccc12)C(Cl)(Cl)Cl (stereo not given)

compound no. | 41 | 42 | 43 | 44 | 45 | 46 | 47
Giardia kill | nt | -96* | nt | nt | nt | -3 | nt
miR-21 reporter | 4% | ? | nt | nt | nt | -5% | nt
PINK1 modulator | 14% | 5% | nt | nt | nt | -4%[38.3 µM] | nt
ERG-DNA inh | 6% | 4% | nt | nt | nt | -3% | nt
PTHR1 agonist | -18% | -44% | nt | nt | nt | -19%[57.5 µM] | nt
ALOX12 inh | -9% | 7% | 30% | 45µM* | 28µM* | 18% | 11µM*
